In PubChem BioAssay AID624483 (NMMLSC, 2012) one finds fluorescence intensity data, which are given here for 26 compounds.

Each structure is given as a SMILES string. The list shows a part of the results, in another mix than the full data. Some of these compounds have results that are not shown, active ones among them. Calls of active or inactive are those of the source. Rule as the data show it: active = fluorescence intensity above about 16000; inconclusive = no clear call, values can overlap the other calls; inactive = below that.

This experiment in a line: counter-screen for toxin protease inhibitors: compound fluorescence, primary screen, artefact control for toxin protease inhibitor project, biochemical, multiplex microsphere, HTS (AID 624483). Also: test concentration not given here. The following applies: compound autofluorescence counterscreen, microsphere flow cytometry; stronger effect = higher value.
As for `CN1[C@@H]2CC[C@H]1CC(OC(=O)C(O)(c1ccccc1)c1ccccc1)C2` (stereo partly specified), the fluorescence intensity was inactive: 3610.

Turning to `O=C(NCC1(N2CCCCC2)CCCCC1)c1cc([N+](=O)[O-])ccc1Cl`, the fluorescence intensity was inactive: 4860.

`Cc1ccc(C(=O)NCC2(N3CCCCC3)CCCCC2)cc1`: the fluorescence intensity was inactive: 9510.

In the case of `COc1cc(SC)ccc1C(=O)NCC1(N(C)C)CCCCC1`, the fluorescence intensity is inactive: 3220.

With `CCN(CC)CC(C)C(C)OC(=O)C(O)(c1ccccc1)c1ccccc1` (stereo unspecified), the fluorescence intensity is inactive: 3930.

For `CC(C)N1C(=O)CC2(CCN(CCOC(=O)C(O)(c3ccccc3)c3ccccc3)CC2)C1=O`, the fluorescence intensity is inactive: 4260.

In the case of `CN(C)C1CCCC1OC(=O)C(O)(c1ccccc1)c1ccccc1` (stereo unspecified), the fluorescence intensity was inactive: 2440.

As for `CN(C)c1ccc(C(=O)NCC2(N(C)C)CCCCC2)cc1`, the fluorescence intensity was inactive: 4140.

With `Cc1ccccc1C(=O)NCC1(N2CCCCC2)CCCCC1`, the fluorescence intensity was inactive: 4200.

Turning to `COc1ccc(C(=O)NCC2(N(C)C)CCCCC2)cc1`, the fluorescence intensity was inactive: 3550.

For `O=C(NCC1(N2CCCCC2)CCCCC1)c1cccc(Br)c1`, the fluorescence intensity is inactive: 6690.

On to `Cc1cc(C(=O)NCC2(N3CCCCC3)CCCCC2)ccc1[N+](=O)[O-]`, for which the fluorescence intensity is inactive: 4530.

On to `CCN1CCCC(OC(=O)C2(O)c3ccccc3C=Cc3ccccc32)C1` (stereo unspecified), for which the fluorescence intensity is inactive: 2500.

`O=C(NCC1(N2CCCCC2)CCCCC1)c1cc(F)c(F)cc1Cl`: the fluorescence intensity was inactive: 7140.

With `C=CCN1CCN(CCOC(=O)C(O)(c2ccccc2)c2ccccc2)CC1`, the fluorescence intensity was inactive: 4160.

In the case of `COc1cc(C(=O)NCC2(N(C)C)CCCCC2)c([N+](=O)[O-])cc1OC`, the fluorescence intensity is inactive: 3320.

On to `CN(C)C1(CNC(=O)c2ccc(Br)cc2)CCCCC1`, for which the fluorescence intensity is inactive: 3920.

As to `O=C(NCC1(N2CCCCC2)CCCCC1)c1cccc(Cl)c1`, the fluorescence intensity was inactive: 3350.

For the compound `COc1ccc(Cl)cc1C(=O)NCC1(N(C)C)CCCCC1`, the fluorescence intensity was inactive: 3480.

Take `COc1cccc(C(=O)NCC2(N3CCCCC3)CCCCC2)c1`: the fluorescence intensity is inactive: 5380.

As for `O=C(OC1CN2CCC1CC2)C(CO)(c1ccccc1)c1ccccc1` (stereo unspecified), the fluorescence intensity is inactive: 2280.

In the case of `O=C(OCCN1CCCC1)C(O)(c1ccccc1)c1ccccc1`, the fluorescence intensity is inactive: 4110.

Take `CC(C)Oc1ccc(C(=O)NCC2(N(C)C)CCCCC2)cc1`: the fluorescence intensity was inactive: 3160.

In the case of `CN(C)c1cccc(C(=O)NCC2(N(C)C)CCCCC2)c1`, the fluorescence intensity was inactive: 2680.

Consider `C=C(C)C#CC(O)(C(=O)OC1CCN(C)CC1)c1ccccc1` (stereo unspecified), for which the fluorescence intensity was inactive: 2900.

Take `COc1ccc(Br)c(C(=O)NCC2(N3CCCCC3)CCCCC2)c1`: the fluorescence intensity was inactive: 9800.
